{"source": "patent US7166435B2", "about": "(priority 2001, dated 2007)", "key": {"[1]": {"system": "Influenza A/Sydney/5/97 [H3N2]", "test": "Efficacy of nasal spray as treatment of H3N2 influenza infection in ferrets", "type": "in vivo, ferret", "details": "infected ferrets treated daily for 4 days"}, "[2]": {"system": "Influenza A/Sydney/5/97 [H3N2]", "test": "Ferret transmission study (infected donor treated)"}, "[3]": {"system": "Influenza A/Sydney/5/97 [H3N2]", "test": "Ferret prophylaxis study (uninfected recipients treated)"}, "[4]": {"details": "four-fold rise in anti HAI antibodies, day 24 post infection"}, "[5]": {"details": "nasal washes titrated on MDCK cells"}, "[6]": {"details": "four-fold increase in HAI antibodies, day 24 post infection"}}}
{"smiles": "CCOC(=O)C1=C[C@@H](OC(CC)CC)[C@H](NC(C)=O)[C@@H](N)C1", "note": "[Tamiflu ™, oseltamivir phosphate]", "values": [{"measurement": "reduction of illness (weight loss, fever, clinical symptoms)", "setting": "[1]", "value": "effective at reducing weight loss, fever, and clinical symptoms"}, {"measurement": "Mean Maximum Health Score", "setting": "[2]", "value": ".7500"}, {"measurement": "Mean Total Health Score (sum of health scores post infection)", "setting": "[2]", "value": ".5000"}, {"measurement": "maximum health score, p versus placebo group", "setting": "[2]", "value": 0.003}, {"measurement": "weight loss (mean maximum weight change post infection), p versus placebo group", "setting": "[2]", "value": 0.019}, {"measurement": "Percentage of animals with nasal symptoms of influenza (donor animals excluded)", "setting": "[2]; Day 1", "value": 0, "unit": "%"}, {"measurement": "Percentage of animals with reduced physical activity (donor animals excluded)", "setting": "[2]; Day 1", "value": 0, "unit": "%"}, {"measurement": "Percentage of animals with nasal symptoms of influenza (donor animals excluded)", "setting": "[2]; Day 2", "value": 12.5, "unit": "%"}, {"measurement": "Percentage of animals with reduced physical activity (donor animals excluded)", "setting": "[2]; Day 2", "value": 0, "unit": "%"}, {"measurement": "Percentage of animals with reduced physical activity (donor animals excluded)", "setting": "[2]; Day 3", "value": 0, "unit": "%"}, {"measurement": "Percentage of animals with nasal symptoms of influenza (donor animals excluded)", "setting": "[2]; Day 4", "value": 50, "unit": "%"}, {"measurement": "Percentage of animals with reduced physical activity (donor animals excluded)", "setting": "[2]; Day 4", "value": 0, "unit": "%"}, {"measurement": "Percentage of animals with nasal symptoms of influenza (donor animals excluded)", "setting": "[2]; Day 4, listed as Tamiflu™", "value": 50, "unit": "%"}, {"measurement": "Percentage of animals with nasal symptoms of influenza (donor animals excluded)", "setting": "[2]; Day 5", "value": 0, "unit": "%"}, {"measurement": "Percentage of animals with reduced physical activity (donor animals excluded)", "setting": "[2]; Day 5", "value": 0, "unit": "%"}, {"measurement": "Percentage of animals with nasal symptoms of influenza (donor animals excluded)", "setting": "[2]; Day 6", "value": 12.5, "unit": "%"}, {"measurement": "Percentage of animals with reduced physical activity (donor animals excluded)", "setting": "[2]; Day 6", "value": 12.5, "unit": "%"}, {"measurement": "# of animals seroconverted", "setting": "[2]; [4]", "value": "8/8"}, {"measurement": "Percentage of animals seroconverted", "setting": "[2]; [4]", "value": 100, "unit": "%"}, {"measurement": "# of animals shedding virus on day 6", "setting": "[2]; [5]", "value": "8/8"}, {"measurement": "Percentage of animals shedding virus on day 6", "setting": "[2]; [5]", "value": 100, "unit": "%"}, {"measurement": "total health score, p versus placebo group", "setting": "[2]; t-test, Bonferroni correction", "value": 0.03}, {"measurement": "mean virus shedding, p Tamiflu treated group versus QR435 treatment group", "setting": "[2]; t-test, Bonferroni correction, Tamiflu group shed significantly more virus", "value": 0.04}, {"measurement": "mean virus shedding, p versus placebo treatment group", "setting": "[2]; t-test, Bonferroni correction, group shed significantly more virus", "value": 0.021}, {"measurement": "Mean Maximum Health Score", "setting": "[3]", "value": ".3750"}, {"measurement": "Mean Total Health Score (sum of health scores post infection)", "setting": "[3]", "value": ".5000"}, {"measurement": "Percentage of animals with nasal symptoms of influenza (donor animals excluded)", "setting": "[3]; Day 1", "value": 0, "unit": "%"}, {"measurement": "Percentage of animals with reduced physical activity (donor animals excluded)", "setting": "[3]; Day 1", "value": 0, "unit": "%"}, {"measurement": "Percentage of animals with nasal symptoms of influenza (donor animals excluded)", "setting": "[3]; Day 2", "value": 0, "unit": "%"}, {"measurement": "Percentage of animals with reduced physical activity (donor animals excluded)", "setting": "[3]; Day 2", "value": 0, "unit": "%"}, {"measurement": "Percentage of animals with nasal symptoms of influenza (donor animals excluded)", "setting": "[3]; Day 3", "value": 25, "unit": "%"}, {"measurement": "Percentage of animals with reduced physical activity (donor animals excluded)", "setting": "[3]; Day 3", "value": 0, "unit": "%"}, {"measurement": "Percentage of animals with nasal symptoms of influenza (donor animals excluded)", "setting": "[3]; Day 3, listed as Tamiflu™", "value": 25, "unit": "%"}, {"measurement": "Percentage of animals with nasal symptoms of influenza (donor animals excluded)", "setting": "[3]; Day 4", "value": 0, "unit": "%"}, {"measurement": "Percentage of animals with reduced physical activity (donor animals excluded)", "setting": "[3]; Day 4", "value": 0, "unit": "%"}, {"measurement": "Percentage of animals with nasal symptoms of influenza (donor animals excluded)", "setting": "[3]; Day 5", "value": 0, "unit": "%"}, {"measurement": "Percentage of animals with reduced physical activity (donor animals excluded)", "setting": "[3]; Day 5", "value": 0, "unit": "%"}, {"measurement": "Percentage of animals with nasal symptoms of influenza (donor animals excluded)", "setting": "[3]; Day 6", "value": 12.5, "unit": "%"}, {"measurement": "Percentage of animals with reduced physical activity (donor animals excluded)", "setting": "[3]; Day 6", "value": 0, "unit": "%"}, {"measurement": "# of animals seroconverted", "setting": "[3]; [6]", "value": "8/8"}, {"measurement": "Percentage of animals seroconverted", "setting": "[3]; [6]", "value": 100, "unit": "%"}, {"measurement": "# of animals shedding virus on day 6", "setting": "[3]; [5]", "value": "7/8"}, {"measurement": "Percentage of animals shedding virus on day 6", "setting": "[3]; [5]", "value": 87.5, "unit": "%"}, {"measurement": "Percentage of animals shedding virus on day 6", "setting": "[3]; nasal washes titrated on MDCK cells, listed as Tamiflu™", "value": 87.5, "unit": "%"}, {"measurement": "weight loss (maximum weight change), p versus placebo treatment group", "setting": "[3]; t-test, Bonferroni correction", "value": 0.019}]}
